According to PubChem BioAssay (NCI):
Some of these compounds have results that are not shown, active ones among them.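 Protocol summary: plate cells (96-well), add compound at 5 concentrations, incubate 48 h, interpolate endpoints linearly. GI50 marks 50% less growth.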

How the values were obtained:
Assay in all cases: NCI anticancer screen, dose series, 48 h; in the data active means GI50 below about 0.43 µM; inactive means the rest
SF-539 CNS = tested on: SF-539 CNS
SK-MEL-5 melanoma = tested on: SK-MEL-5 melanoma
UACC-257 melanoma = tested on: UACC-257 melanoma
HOP-62 NSCLC = tested on: HOP-62 NSCLC
ACHN renal = tested on: ACHN renal
NCI-H23 lung = tested on: NCI-H23 lung
RXF 393 renal = tested on: RXF 393 renal
MCF7 breast = tested on: MCF7 breast
SW-620 colon = tested on: SW-620 colon
LOX IMVI melanoma = tested on: LOX IMVI melanoma
MDA-N = tested on: MDA-N
HCT-15 colon = tested on: HCT-15 colon
OVCAR-8 ovarian = tested on: OVCAR-8 ovarian
SNB-19 CNS = tested on: SNB-19 CNS
MOLT-4 leukemia = tested on: MOLT-4 leukemia
SN12C renal = tested on: SN12C renal
K-562 leukemia = tested on: K-562 leukemia
UACC-62 melanoma = tested on: UACC-62 melanoma
SNB-75 CNS = tested on: SNB-75 CNS
M14 melanoma = tested on: M14 melanoma
T-47D breast = tested on: T-47D breast
EKVX NSCLC = tested on: EKVX NSCLC
786-0 renal = tested on: 786-0 renal
SR leukemia = tested on: SR leukemia
MDA-MB-231 breast = tested on: MDA-MB-231 breast
MALME-3M melanoma = tested on: MALME-3M melanoma
A549 NSCLC = tested on: A549 NSCLC
U251 CNS = tested on: U251 CNS
RPMI-8226 leukemia = tested on: RPMI-8226 leukemia
HCT-116 colon = tested on: HCT-116 colon
KM12 colon = tested on: KM12 colon
HT29 colon = tested on: HT29 colon
CCRF-CEM leukemia = tested on: CCRF-CEM leukemia
COLO 205 colon = tested on: COLO 205 colon
IGROV1 ovarian = tested on: IGROV1 ovarian
CAKI-1 renal = tested on: CAKI-1 renal
OVCAR-5 ovarian = tested on: OVCAR-5 ovarian
SF-295 CNS = tested on: SF-295 CNS
NCI/ADR-RES ovarian = tested on: NCI/ADR-RES ovarian
SF-268 CNS = tested on: SF-268 CNS
SK-OV-3 ovarian = tested on: SK-OV-3 ovarian
NCI-H226 lung = tested on: NCI-H226 lung
TK-10 renal = tested on: TK-10 renal
DU-145 prostate = tested on: DU-145 prostate
NCI-H522 lung = tested on: NCI-H522 lung
SK-MEL-28 melanoma = tested on: SK-MEL-28 melanoma
OVCAR-3 ovarian = tested on: OVCAR-3 ovarian
PC-3 prostate = tested on: PC-3 prostate
HCC-2998 colon = tested on: HCC-2998 colon
UO-31 renal = tested on: UO-31 renal
HL-60(TB) leukemia = tested on: HL-60(TB) leukemia

Measured: GI50

CN1CCC(OC(=O)C2(O)c3ccccc3Oc3ccccc32)CC1
inactive: SF-539 CNS > 100 µM | SK-MEL-5 melanoma > 100 µM | UACC-257 melanoma > 100 µM | HOP-62 NSCLC > 100 µM | ACHN renal > 100 µM | NCI-H23 lung > 100 µM | RXF 393 renal > 100 µM | MCF7 breast > 100 µM | SW-620 colon > 100 µM | LOX IMVI melanoma > 100 µM | MDA-N > 100 µM | HCT-15 colon > 100 µM | OVCAR-8 ovarian > 100 µM | SNB-19 CNS > 100 µM | MOLT-4 leukemia > 100 µM | SN12C renal > 100 µM | K-562 leukemia > 100 µM | UACC-62 melanoma > 100 µM | SNB-75 CNS > 100 µM | M14 melanoma > 100 µM | T-47D breast > 100 µM | EKVX NSCLC > 100 µM | 786-0 renal > 100 µM | SR leukemia > 100 µM | MDA-MB-231 breast > 100 µM | MALME-3M melanoma > 100 µM | A549 NSCLC > 100 µM | U251 CNS > 100 µM | RPMI-8226 leukemia > 100 µM | HCT-116 colon > 100 µM | KM12 colon > 100 µM | HT29 colon > 100 µM | CCRF-CEM leukemia > 100 µM | COLO 205 colon > 100 µM | IGROV1 ovarian > 100 µM | CAKI-1 renal > 100 µM | OVCAR-5 ovarian > 100 µM | SF-295 CNS > 100 µM | NCI/ADR-RES ovarian > 100 µM | SF-268 CNS > 100 µM | SK-OV-3 ovarian > 100 µM | NCI-H226 lung > 100 µM | TK-10 renal > 100 µM | DU-145 prostate > 100 µM | NCI-H522 lung > 100 µM | SK-MEL-28 melanoma > 100 µM | OVCAR-3 ovarian > 100 µM | PC-3 prostate > 100 µM | HCC-2998 colon > 100 µM | UO-31 renal > 100 µM | HL-60(TB) leukemia > 100 µM
